According to paper PMC7723054:
The list shows a part of the results.

T1: LIN28A (human?, UniProt Q9H9Z2 1-209)
T1 sequence: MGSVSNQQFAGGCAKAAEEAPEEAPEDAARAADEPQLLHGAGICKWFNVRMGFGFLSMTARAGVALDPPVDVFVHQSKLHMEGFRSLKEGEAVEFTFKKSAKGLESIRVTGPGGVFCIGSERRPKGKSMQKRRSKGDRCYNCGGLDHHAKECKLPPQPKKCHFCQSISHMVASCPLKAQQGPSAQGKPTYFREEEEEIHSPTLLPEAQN

T2: CIRBP (Homo sapiens, UniProt Q14011 1-172)
T2 sequence: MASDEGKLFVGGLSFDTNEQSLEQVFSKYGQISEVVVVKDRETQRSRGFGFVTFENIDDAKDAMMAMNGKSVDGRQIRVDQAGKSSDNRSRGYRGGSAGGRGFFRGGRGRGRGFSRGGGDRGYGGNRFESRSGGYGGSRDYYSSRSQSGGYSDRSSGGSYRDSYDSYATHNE

T3: DHX36 (Homo sapiens, UniProt Q9H2U1 1-1008)
T3 sequence: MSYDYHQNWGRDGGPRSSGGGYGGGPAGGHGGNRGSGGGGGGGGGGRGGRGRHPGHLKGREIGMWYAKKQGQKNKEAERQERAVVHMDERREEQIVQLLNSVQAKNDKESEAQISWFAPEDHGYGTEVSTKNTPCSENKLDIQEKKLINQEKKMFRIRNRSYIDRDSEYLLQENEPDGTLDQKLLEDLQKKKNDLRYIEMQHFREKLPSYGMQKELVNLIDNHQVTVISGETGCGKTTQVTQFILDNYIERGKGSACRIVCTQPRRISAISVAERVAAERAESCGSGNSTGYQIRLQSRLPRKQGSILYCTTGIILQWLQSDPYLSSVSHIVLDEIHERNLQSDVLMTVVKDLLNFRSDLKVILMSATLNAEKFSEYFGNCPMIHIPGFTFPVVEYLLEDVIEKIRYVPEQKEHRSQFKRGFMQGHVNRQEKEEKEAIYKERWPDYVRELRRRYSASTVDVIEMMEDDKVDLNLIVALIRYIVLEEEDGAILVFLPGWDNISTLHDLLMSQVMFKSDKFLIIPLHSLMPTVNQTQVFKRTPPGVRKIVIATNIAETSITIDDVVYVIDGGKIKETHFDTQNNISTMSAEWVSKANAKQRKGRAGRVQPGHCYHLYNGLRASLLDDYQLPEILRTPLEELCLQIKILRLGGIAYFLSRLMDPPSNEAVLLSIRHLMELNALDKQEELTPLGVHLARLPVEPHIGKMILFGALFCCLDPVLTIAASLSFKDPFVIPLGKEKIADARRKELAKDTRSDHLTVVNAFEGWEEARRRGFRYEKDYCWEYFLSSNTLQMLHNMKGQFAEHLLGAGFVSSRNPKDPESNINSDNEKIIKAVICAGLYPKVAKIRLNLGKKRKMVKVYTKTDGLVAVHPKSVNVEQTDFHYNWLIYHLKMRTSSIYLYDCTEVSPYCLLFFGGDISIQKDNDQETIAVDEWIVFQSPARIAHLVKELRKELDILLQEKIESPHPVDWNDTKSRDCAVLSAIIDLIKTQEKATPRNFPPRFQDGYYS

B1: hsa-mir-4722 (structured_RNA)
RNA: GGGAAGUGGUCUUUAUAUGUUGUGCGGUGGUGUACGAAGUUUCAGCAGGUUGGCUGGGCCAGGCCUGACCUGCUGAAGCUUCGUGCAC
B2: hsa-mir-1-1 (structured_RNA)
RNA: GGGAAACCGAGGAUGGACUGCAUGUCUCGGUGUACGAAGUUUCAGCCCCAUAUGGACCUGCUAAGCUAUGGAGCUGAAGCUUCGUGCAC
B3: hsa-mir-411 (structured_RNA)
RNA: GGGACAGUAUCAUCACGCACUUCGGCCGGGUGUACGAAGUUUCAGCCGUACGCUUUAUCUGUGACGUAUGGCUGAAGCUUCGUGCAC
B4: PARIS_ID4 (structured_RNA)
RNA: GGGAGACCGCUGAAGACGUAUUGUGAACGGUGUACGAAGUUUCAGCAGUGAUGGCUUUGAGGUUAUUUGCAGUUUCCUAGCCAUCUCAAAGUGUGCUGCGGGGAUCUCUGCUGAAGCUUCGUGCAC
B5: hsa-mir-6875 (structured_RNA)
RNA: GGGACGAGAUUAUAUACGACGCAUUCGUGGUGUACGAAGUUUCAGCAGAAGGCCUAUGGUGAUUUGCAUUCUUGCUGAAGCUUCGUGCAC
B6: hsa-mir-6131 (structured_RNA)
RNA: GGGACAGUCCUGCAGGUUAAACUAUCGCGGUGUACGAAGUUUCAGCGGUCAGGUGGUGCCCUCCUUCCAUGGGUAGAGCCAGAGAUGGUGGGUUCUGGCUGCUGAAGCUUCGUGCAC
B7: hsa-mir-489 (structured_RNA)
RNA: GGGAGGCAGAAUCACAACGAGUUCUUACGGUGUACGAAGUUUCAGCCCAUUUACUUGAACCUUUAGGAGUGAGCUGAAGCUUCGUGCAC
B8: hsa-mir-760 (structured_RNA)
RNA: GGGAACCUAUGAGAAUAGCCCUCCUGAGGGUGUACGAAGUUUCAGCCCCGGAUACCUCAGAAAUUCGGGCUGAAGCUUCGUGCAC
B9: hsa-mir-1264 (structured_RNA)
RNA: GGGAGAGAGCGAAGAUCACAUCGAGCAGGGUGUACGAAGUUUCAGCUUUGUUGAAAGAAUAAAUAAACCAACAAGGCUGAAGCUUCGUGCAC
B10: hsa-mir-376b (structured_RNA)
RNA: GGGACAAGGUUGCGUGGCAGAACGAAAUGGUGUACGAAGUUUCAGCGUUUACGUGAUUCCUGGUUAAUCGCUGAAGCUUCGUGCAC
B11: NEAT1_ParasoR_ID41 (structured_RNA)
RNA: GGGAAGUAGGCACGCGAAAACUGAGUUAGGUGUACGAAGUUUCAGCGUCUGUAAGAUGAGUUAGGGUGACUUGCUAAUAGACGCUGAAGCUUCGUGCAC
B12: hsa-mir-627 (structured_RNA)
RNA: GGGAAAUACGCAUAGUGGUUAACCGGACGGUGUACGAAGUUUCAGCAAGAGGAGGUGGUUGUUUUCCUCCUCUUGCUGAAGCUUCGUGCAC
B13: hsa-mir-8088 (structured_RNA)
RNA: GGGAGAAGUUAGUCGCAUAAGUCAAGAAGGUGUACGAAGUUUCAGCGGUAUGGAUUCUGUUGUUUUGGCAACAUUCUGCUGAAGCUUCGUGCAC
B14: hsa-mir-3682 (structured_RNA)
RNA: GGGAACAUGUGGCGACGGUUAUACGCCCGGUGUACGAAGUUUCAGCAUCAUAAUAAAGGUGUCAUGAUGCUGAAGCUUCGUGCAC
B15: hsa-mir-23b (structured_RNA)
RNA: GGGAAUGGUGUCGCAUCUGAAAAUUCACGGUGUACGAAGUUUCAGCUGAUUUGUGACUUAAGAUUAAAAUCAGCUGAAGCUUCGUGCAC
B16: hsa-mir-6879 (structured_RNA)
RNA: GGGACGGAACUUGUGCCACGCGAUUUCUGGUGUACGAAGUUUCAGCGGGAGAGGGGCCCAGCUGACCCUCCUGUCGCUGAAGCUUCGUGCAC
B17: hsa-mir-4480 (structured_RNA)
RNA: GGGACAUGACAGACGAUGGUAUCACGACGGUGUACGAAGUUUCAGCGGCCACCCAGGGAGUAAGUAGCCGCUGAAGCUUCGUGCAC
B18: hsa-mir-181d (structured_RNA)
RNA: GGGAGAGAAAAGCGACGAUCAUUCGCGCGGUGUACGAAGUUUCAGCGUGGGUUGUGAGGACUGAGGCCAGACCCACGCUGAAGCUUCGUGCAC
B19: hsa-mir-193b (structured_RNA)
RNA: GGGAAUCUGAGAAAGUAUUAACCAGUGCGGUGUACGAAGUUUCAGCAGAUGAGUUUAUGUUUUAUCCAACUGCUGAAGCUUCGUGCAC
B20: hsa-mir-6835 (structured_RNA)
RNA: GGGAAAUGGCCGGAUUACUGUUCACCCUGGUGUACGAAGUUUCAGCGAAGCGAGAUGUUUGUCUAAAGCUGAAGCUUCGUGCAC
B21: hsa-mir-3659 (structured_RNA)
RNA: GGGAGCUAGUGGCAAGACGUACAUUAAUGGUGUACGAAGUUUCAGCCACGUGCUGCUUGUAUAGACAUGAGGCUGAAGCUUCGUGCAC
B22: hsa-mir-518b_518c (structured_RNA)
RNA: GGGAGCCAUAUCUUACUGUGUACUGCGGGGUGUACGAAGUUUCAGCUCUGUUGUCUGAAAGAAAACAGCUGAAGCUUCGUGCAC
B23: hsa-mir-20a (structured_RNA)
RNA: GGGAAAUGGAUGGCCGUACGCAUAUUCGGGUGUACGAAGUUUCAGCAGGUAGUGUUUAGUUAUCUACUGCUGAAGCUUCGUGCAC
B24: hsa-mir-5702 (structured_RNA)
RNA: GGGAAGAAAGGCUCAGUGGACGGCGAUUGGUGUACGAAGUUUCAGCUCCAACCUGAAAUCCUUCUGUAGGUUGAGGCUGAAGCUUCGUGCAC
B25: hsa-mir-580 (structured_RNA)
RNA: GGGAUAACCUAUUGUCGGCUUUGCACCAGGUGUACGAAGUUUCAGCUCAGAUAUUUAAGUUAACAGUAUUUGAGCUGAAGCUUCGUGCAC

Legend:
Test in all cases: FOREST: bead pull-down of RNA structure library v1, barcode microarray; U1A/LIN28A: 20 mM HEPES pH 7.5, 80 mM KCl, 20 mM NaCl, 10% glycerol, 2 mM DTT, 0.1 ug/uL BSA, 4 C; BG4/CIRBP/DHX36: 10 mM Tris-HCl pH 7.5, 100 mM KCl (or LiCl),; high values mean tight binding
LIN28A = molecular target: T1, LIN28A
CIRBP = molecular target: T2, CIRBP
DHX36 = molecular target: T3, DHX36

Row | Binder | binding signal (LIN28A) | binding signal (CIRBP) | binding signal (DHX36)
1 | B1 | 1.59 z-score | 2.3 z-score | 1.83 z-score
2 | B2 | 1.48 z-score | 2.3 z-score | 0.315 z-score
3 | B3 | 1.42 z-score | 0.443 z-score | 0.233 z-score
4 | B4 | 1.42 z-score | 0.399 z-score | 1.04 z-score
5 | B5 | 1.58 z-score | -0.372 z-score | 0.491 z-score
6 | B6 | 1.42 z-score | -0.4 z-score | 0.204 z-score
7 | B7 | 1.45 z-score | 0.914 z-score | 0.124 z-score
8 | B8 | 1.47 z-score | 3.62 z-score | 1.18 z-score
9 | B9 | 1.53 z-score | 1.3 z-score | 0.504 z-score
10 | B10 | 1.5 z-score | 0.35 z-score | -0.743 z-score
11 | B11 | 1.56 z-score | 1.61 z-score | -0.17 z-score
12 | B12 | 1.59 z-score | 2.36 z-score | 2.78 z-score
13 | B13 | 1.55 z-score | 1.25 z-score | 1.51 z-score
14 | B14 | 1.42 z-score | -0.497 z-score | -0.423 z-score
15 | B15 | 1.49 z-score | -0.358 z-score | -0.323 z-score
16 | B16 | 1.54 z-score | -0.558 z-score | -0.178 z-score
17 | B17 | 1.56 z-score | 2.24 z-score | 0.808 z-score
18 | B18 | 1.48 z-score | 1.06 z-score | 1.3 z-score
19 | B19 | 1.46 z-score | 0.242 z-score | -0.154 z-score
20 | B20 | 1.57 z-score | 0.947 z-score | -0.244 z-score
21 | B21 | 1.59 z-score | 0.0197 z-score | 0.35 z-score
22 | B22 | 1.45 z-score | 1.41 z-score | 0.951 z-score
23 | B23 | 1.43 z-score | 0.385 z-score | 2.02 z-score
24 | B24 | 1.61 z-score | -1.09 z-score | -0.0806 z-score
25 | B25 | 1.41 z-score | 1.02 z-score | 0.858 z-score
